Experiments:
[1] = molecular target: human mu opioid receptor (hMOR) (Homo sapiens, UniProt P35372); assay: biochemical
[2] = molecular target: Ala^348,353 hMOR (Homo sapiens, UniProt P35372, C348A/C353A); assay: biochemical; type: binding

The chains behind the UniProt entries cited, without tags or fusion partners.
UniProt P35372, whole entry: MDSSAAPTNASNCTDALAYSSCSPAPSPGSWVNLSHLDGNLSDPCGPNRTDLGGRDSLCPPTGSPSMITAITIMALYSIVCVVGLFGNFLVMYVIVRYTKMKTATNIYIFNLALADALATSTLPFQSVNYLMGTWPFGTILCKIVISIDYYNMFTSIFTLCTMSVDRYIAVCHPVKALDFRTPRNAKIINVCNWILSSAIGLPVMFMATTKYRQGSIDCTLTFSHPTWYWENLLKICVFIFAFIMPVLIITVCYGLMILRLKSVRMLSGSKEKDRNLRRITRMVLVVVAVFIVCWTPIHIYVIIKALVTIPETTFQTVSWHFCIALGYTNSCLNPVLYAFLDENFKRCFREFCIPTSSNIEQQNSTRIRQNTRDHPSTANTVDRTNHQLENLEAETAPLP
UniProt P35372, whole entry C348A/C353A: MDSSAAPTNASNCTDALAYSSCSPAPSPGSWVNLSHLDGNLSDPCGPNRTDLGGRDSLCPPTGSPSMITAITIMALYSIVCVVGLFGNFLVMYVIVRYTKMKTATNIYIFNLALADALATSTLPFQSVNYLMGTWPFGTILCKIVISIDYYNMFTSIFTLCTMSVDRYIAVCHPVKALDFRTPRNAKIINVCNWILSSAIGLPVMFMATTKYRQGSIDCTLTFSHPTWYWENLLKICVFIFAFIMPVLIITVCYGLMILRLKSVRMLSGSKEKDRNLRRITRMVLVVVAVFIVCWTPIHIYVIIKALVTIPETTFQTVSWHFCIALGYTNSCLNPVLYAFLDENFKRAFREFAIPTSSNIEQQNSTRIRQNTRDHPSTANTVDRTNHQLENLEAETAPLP

Row | SMILES | Ki [1] [nM] | Ki [2] [nM]
1 | C[C@@H](NC(=O)[C@@H](N)Cc1ccc(O)cc1)C(=O)N[C@@H](Cc1ccccc1)C(=O)NCC(=O)N[C@@H](Cc1ccc(O)cc1)C(=O)N1CCC[C@H]1C(=O)N[C@@H](CO)C(N)=O [Dermorphin] | 4.1 ± 1.7 | 0.26 ± 0.1
2 | Oc1ccc2c3c1O[C@H]1c4[nH]c5ccccc5c4C[C@@]4(O)[C@@H](C2)N(CC2CC2)CC[C@]314 [Naltrindole] | 5.07 ± 0.58 | 5.42 ± 0.56

From paper PMC317294 (BMC Pharmacology, 2003)
